# Details: pH 6
row,Substance,redissolubility
1,N--(2-mercaptopropionyl)-glycine,O (key: O: dissolved within one minute; Δ: dissolved within one to three minutes)
2,thiourea,O (key: O: dissolved within one minute; Δ: dissolved within one to three minutes)
3,β-alanine,O (key: O: dissolved within one minute; Δ: dissolved within one to three minutes)

# Reference: patent US4866044A, “Solubilized composition of poorly-soluble pharmaceutical product” (Takeda Chemical Industries, Ltd., priority 1985, dated 1989)
